Values of other authors, collected in patent publication US20250127985A1, “IMPLANTABLE AND REFILLABLE DRUG DELIVERY RESERVOIR SYSTEM WITH POROUS METAL FRIT FOR SUSTAINED INTRACEREBROVENTRICULAR DELIVERY AND METHODS OF USE” (Genentech, Inc., priority 2022, published 2025).
Like-named read-outs stand apart in the source and are kept apart here.

Settings: bovine serum albumin in water at 20° C. (Molokhia et al, Exp Eye Res 2008)

bovine serum albumin [BSA]
Diff. Coeff: 6.1E−07 cm^2/s | Diff. Coeff (listed as bovine serum albumin): 6.1 e-7 cm^2/s
